# Source: publication PMC7525492, “Microtiter plate-based antibody-competition assay to determine binding affinities and plasma/blood stability of CXCR4 ligands” (Scientific Reports, 2020)
# By UniProt entry, the sequences of proteins in these tests, tags left out.
# UniProt P61073, whole entry: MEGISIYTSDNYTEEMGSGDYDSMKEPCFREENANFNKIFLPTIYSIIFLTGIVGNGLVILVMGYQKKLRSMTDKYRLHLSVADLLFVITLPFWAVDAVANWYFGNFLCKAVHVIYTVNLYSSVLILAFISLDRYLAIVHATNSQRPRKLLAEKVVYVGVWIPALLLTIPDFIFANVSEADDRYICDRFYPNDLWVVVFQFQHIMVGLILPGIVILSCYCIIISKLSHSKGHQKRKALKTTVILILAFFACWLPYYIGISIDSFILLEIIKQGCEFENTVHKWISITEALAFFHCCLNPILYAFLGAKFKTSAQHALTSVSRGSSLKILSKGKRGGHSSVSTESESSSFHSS
# Molecular target: CXCR4 (Homo sapiens, UniProt P61073)
# Assay: 12G5 antibody competition assay on SupT1 cells
# Format: binding
# Experimental: Compounds were serially diluted in ice cold PBS and 12G5-APC antibody was diluted in cold PBS containing 1% FCS. […] Plates were incubated at 4 °C in the dark for 2 h. Afterwards cells were washed twice by centrifugation with PBS containing 1% FCS and fixed with 2% paraformaldehyde (PFA). During all pipetting steps, plates were kept cool by using a cooling pad. Antibody binding was analyzed by flow cytometry (FACS CytoFLEX; Beckman Coulter) by determination of the mean fluorescence intensity (MFI) of at least 5.000 cells (50.000 cells per well) or 1.000 cells (5.000 cells per well).
# Ki calculation3 Ki=IC50/1+L/Kd
# For Ki = inhibitory constant; IC50 = half maximal inhibition for 12G5 binding; [L] = 12G5 concentration; Kd = dissociation constant of 12G5.
# Statistical analysis was performed in GraphPad Prism (version 8.3.0). IC50 and IC90 curves and the areas under the curves (AUC) were determined by nonlinear regression.
structure (smiles),measurement,setting,value
NCCCCN(Cc1nc2ccccc2[nH]1)[C@H]1CCCc2cccnc21 [AMD070],IC50,"SupT1 cells, APC-labelled 12G5, 2 h at 4 °C, mean ± SEM of 3 assays",0.037 ± 0.015 µM
same,Ki,"calculated from IC50 12G5 by Cheng-Prusoff, Kd of 12G5 151.5 pM",0.014 ± 0.006 µM
